Measurements reported in article PMC5643558, “Stabilization of phosphofructokinase 1 platelet isoform by AKT promotes tumorigenesis” (Nature Communications, 2017).
Numbering of substitutions follows the chain as printed.

Experiments:
[1] = biological target: T1, purified bacterially expressed S-tagged PFKP (human, UniProt Q01813 1-784); assay: pull-down; purified bacterially expressed S-tagged PFKP incubated with purified His-TRIM21; details: both partners purified
T1 construct: PFKP, human; Probably from the pET32a construct named in the methods (that vector would also add thioredoxin and a His tag); also called S-tagged WT PFKP; purified WT PFKP; source: bacterially expressed, purified
T1 sequence (looked up): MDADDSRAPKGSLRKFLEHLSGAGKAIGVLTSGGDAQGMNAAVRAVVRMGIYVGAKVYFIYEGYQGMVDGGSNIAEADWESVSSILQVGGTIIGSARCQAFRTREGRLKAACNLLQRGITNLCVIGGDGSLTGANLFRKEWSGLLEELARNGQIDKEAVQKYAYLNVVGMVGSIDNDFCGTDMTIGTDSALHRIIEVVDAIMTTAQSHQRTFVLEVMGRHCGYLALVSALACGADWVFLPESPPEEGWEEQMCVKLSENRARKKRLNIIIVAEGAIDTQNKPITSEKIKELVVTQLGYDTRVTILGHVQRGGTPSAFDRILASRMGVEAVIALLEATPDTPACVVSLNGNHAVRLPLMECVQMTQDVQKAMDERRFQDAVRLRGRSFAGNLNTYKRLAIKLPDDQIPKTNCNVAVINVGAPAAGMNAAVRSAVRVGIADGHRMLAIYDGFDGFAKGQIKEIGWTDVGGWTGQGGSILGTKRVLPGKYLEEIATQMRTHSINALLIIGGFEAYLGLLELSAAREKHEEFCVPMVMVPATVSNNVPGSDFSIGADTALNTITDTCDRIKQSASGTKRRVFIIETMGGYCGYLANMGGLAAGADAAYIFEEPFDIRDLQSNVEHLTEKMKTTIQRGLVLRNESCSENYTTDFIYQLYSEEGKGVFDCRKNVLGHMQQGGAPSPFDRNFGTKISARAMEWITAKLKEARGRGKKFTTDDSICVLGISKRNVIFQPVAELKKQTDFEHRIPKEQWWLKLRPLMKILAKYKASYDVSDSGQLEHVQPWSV

S-tagged PFKP S386A = biological target: T2, S-tagged PFKP S386A (human, UniProt Q01813 1-784, S386A); assay: pull-down; in vitro kinase reaction of purified S-tagged WT PFKP or PFKP S386A with or without active GST-AKT1, then incubation with purified His-TRIM21 and pull-down; details: both partners purified
T2 construct: PFKP, human; also called purified PFKP S386A; source: bacterially expressed, purified
T2 sequence (looked up): T1 sequence (looked up) with S386A

B1: purified His-TRIM21 (enzyme, human, UniProt P19474 1-475, looked up)
chain: MASAARLTMMWEEVTCPICLDPFVEPVSIECGHSFCQECISQVGKGGGSVCPVCRQRFLLKNLRPNRQLANMVNNLKEISQEAREGTQGERCAVHGERLHLFCEKDGKALCWVCAQSRKHRDHAMVPLEEAAQEYQEKLQVALGELRRKQELAEKLEVEIAIKRADWKKTVETQKSRIHAEFVQQKNFLVEEEQRQLQELEKDEREQLRILGEKEAKLAQQSQALQELISELDRRCHSSALELLQEVIIVLERSESWNLKDLDITSPELRSVCHVPGLKKMLRTCAVHITLDPDTANPWLILSEDRRQVRLGDTQQSIPGNEERFDSYPMVLGAQHFHSGKHYWEVDVTGKEAWDLGVCRDSVRRKGHFLLSSKSGFWTIWLWNKQKYEAGTYPQTPLHLQVPPCQVGIFLDYEAGMVSFYNITDHGSLIYSFSECAFTGPLRPFFSPGFNDGGKNTAPLTLCPLNIGSQGSTDY
notes: TRIM21, human; also called purified TRIM21; source: purified; recombinant human TRIM21 bought: BIOTREND Chemicals (pro-328)
binding result [1]: binds
binding result (S-tagged PFKP S386A): binds
